{"source": "patent US5786328", "key": {"[1]": {"target": "Human Factor XIIa (human) (UniProt P00748)"}, "Human Factor XIa (human) [2]": {"target": "Human Factor XIa (human) (UniProt P03951)"}, "Human Factor Xa (human)": {"target": "Human Factor Xa (human) (UniProt P00742)"}, "[3]": {"target": "Human activated protein C (human) (UniProt P04070)"}, "[4]": {"target": "Human plasma kallikrein (human) (UniProt P03952)"}, "Human plasmin (human)": {"target": "Human plasmin (human) (UniProt P00747)"}, "Human thrombin (human)": {"target": "Human thrombin (human) (UniProt P00734)"}, "[5]": {"target": "tissue factor-Factor VIIa (human) (UniProt P13726)"}, "Human Factor XIa (human) [6]": {"target": "Human Factor XIa (human) (UniProt P03951)", "assay": "inhibition of FXIa, chromogenic substrate, fit for tight-binding inhibitors (apparent Ki*)"}}}
{"substance": "BPTI (bovine basic pancreatic trypsin inhibitor)", "values": [{"measurement": "fraction of remaining proteolytic activity with 100 nM inhibitor (fraction of uninhibited rate)", "setting": "[1]", "result": 1.01}, {"measurement": "fraction of remaining proteolytic activity with 100 nM inhibitor (fraction of uninhibited rate)", "setting": "Human Factor XIa (human) [2]", "result": 0.67}, {"measurement": "fraction of remaining proteolytic activity with 100 nM inhibitor (fraction of uninhibited rate)", "setting": "Human Factor Xa (human)", "result": 0.99}, {"measurement": "fraction of remaining proteolytic activity with 100 nM inhibitor (fraction of uninhibited rate)", "setting": "[3]", "result": 0.84}, {"measurement": "fraction of remaining proteolytic activity with 100 nM inhibitor (fraction of uninhibited rate)", "setting": "[4]", "result": 0.34}, {"measurement": "fraction of remaining proteolytic activity with 100 nM inhibitor (fraction of uninhibited rate)", "setting": "Human plasmin (human)", "result": 0}, {"measurement": "fraction of remaining proteolytic activity with 100 nM inhibitor (fraction of uninhibited rate)", "setting": "Human thrombin (human)", "result": 0.97}, {"measurement": "fraction of remaining proteolytic activity with 100 nM inhibitor (fraction of uninhibited rate)", "setting": "[5]", "result": 1.01}]}
{"substance": "BPTI (bovine basic pancreatic trypsin inhibitor) (other; other documents disagree on this pair)", "values": [{"measurement": "Ki", "setting": "Human Factor XIa (human) [6]", "result": "> 300", "unit": "nM"}]}
